Laboratory results reported in patent US8927500B2, “Peptidomimetic macrocycles” (Aileron Therapeutics, Inc., priority 2012, dated 2015).

Tests used:
p21 = assay: P21 ELISA assay in SJSA1 cells; format: cell-based, Human; settings: for p21 0.3 uM: 0.3 uM peptide; for p21 1 uM: 1 uM peptide; for p21 3 uM: 3 uM peptide; for p21 10 uM: 10 uM peptide; for p21 30 uM: 30 uM peptide
RKO cells = assay: Cell viability assay (MTT), RKO; settings: read-out: RKO EC50 (72 h)

**Q.** What does the source list for `CCCC[C@H](NC(=O)[C@H](Cc1cc(=O)oc2cc(OC)c(OC)cc12)NC(=O)[C@H](C)NC(=O)[C@]1(C)CCCC=CCCCCCC[C@@](C)(NC(=O)[C@H](Cc2ccccc2)NC(=O)[C@@H](NC(=O)[C@H](CC(C)C)NC(C)=O)[C@@H](C)O)C(=O)N[C@@H](C)C(=O)N[C@@H](Cc2ccc(O)cc2)C(=O)N[C@@H](Cc2c[nH]c3ccccc23)C(=O)N[C@@H](C)C(=O)N[C@@H](CCC(N)=O)C(=O)N[C@@H](CC(C)C)C(=O)N1)C(=O)N[C@@H](C)C(N)=O` (single isomer, unassigned) [compound 419]?
**A.** p21 0.3 uM (p21): 58.28; p21 1 uM (p21): 97.36; p21 3 uM (p21): 221.65; p21 10 uM (p21): 1520.69; p21 30 uM (p21): 2187.94

**Q.** `CC(=O)N[C@@H](CC(C)C)C(=O)N[C@H](C(=O)N[C@@H](Cc1ccccc1)C(=O)N[C@]1(C)CCCCCCC=CCCC[C@@](C)(C(=O)N[C@@H](C)C(=O)N[C@@H](C)C(=O)N[C@@H](C)C(=O)N[C@@H](C)C(=O)N[C@@H](C)C(=O)N[C@H](C)C(N)=O)NC(=O)[C@H](CC(C)C)NC(=O)[C@H](CCC(N)=O)NC(=O)[C@H](C)NC(=O)[C@H](Cc2c[nH]c3cc(Cl)ccc23)NC(=O)[C@H](Cc2ccc(O)cc2)NC(=O)[C@H](C)NC1=O)[C@@H](C)O` (single isomer, unassigned) [compound 338] was tested. Which EC50 (RKO cells) did it give?
**A.** The EC50 was < 5 µM.

**Q.** For `CC(=O)N[C@@H](CC(C)C)C(=O)N[C@H](C(=O)N[C@@H](Cc1ccccc1)C(=O)N[C@]1(C)CCCCCCC=CCCC[C@@](C)(C(=O)N[C@@H](CO)C(=O)N[C@@H](C)C(=O)N[C@@H](C)C(N)=O)NC(=O)[C@H](CC2CCCCC2)NC(=O)[C@H](CCC(N)=O)NC(=O)[C@H](C)NC(=O)[C@H](Cc2c[nH]c3ccccc23)NC(=O)[C@H](Cc2ccc(O)cc2)NC(=O)[C@H](CCC(=O)O)NC1=O)[C@@H](C)O` (single isomer, unassigned) [compound 148], which EC50 (RKO cells) is on record?
**A.** Its EC50 is 15 to 30 µM.

**Q.** How did the EC50 (RKO cells) turn out when `CC[C@H](C)[C@H](NC(=O)[C@H](C)NC(=O)[C@H](C)NC(=O)[C@]1(C)CCC/C=C/CCCCCC[C@@](C)(NC(=O)[C@H](Cc2ccccc2)NC(=O)[C@@H](NC(=O)[C@H](CC(C)C)NC(C)=O)[C@@H](C)O)C(=O)N[C@@H](CCC(=O)O)C(=O)N[C@@H](Cc2ccc(C(=O)O)cc2)C(=O)N[C@@H](Cc2c[nH]c3ccccc23)C(=O)N[C@@H](C)C(=O)N[C@@H](CCC(N)=O)C(=O)N[C@@H](CC2CCC2)C(=O)N1)C(=O)N[C@H](C)C(N)=O` [compound 249] was run?
**A.** Its EC50 is < 5 µM.

**Q.** Which EC50 (RKO cells) does the source give for `CC(=O)N[C@@H](CC(C)C)C(=O)N[C@H](C(=O)N[C@@H](Cc1ccccc1)C(=O)N[C@]1(C)CCCCCCC=CCCC[C@@](C)(C(=O)N[C@@H](CO)C(=O)N[C@@H](C)C(=O)N[C@@H](CO)C(N)=O)NC(=O)[C@H](CC(C)C)NC(=O)[C@H](CCC(N)=O)NC(=O)[C@H](C)NC(=O)[C@H](Cc2c[nH]c3ccccc23)NC(=O)[C@H](Cc2ccc(O)cc2)NC(=O)[C@H](C)NC1=O)[C@@H](C)O` [compound 122] here?
**A.** The EC50 was 5 to 15 µM.

**Q.** With `CC(=O)N[C@@H](CC(C)C)C(=O)N[C@H](C(=O)N[C@@H](Cc1ccccc1)C(=O)N[C@]1(C)CCCCCC/C=C\CCC[C@@](C)(C(=O)N[C@@H](CO)C(=O)N[C@@H](C)C(=O)N[C@@H](C)C(N)=O)NC(=O)[C@H](CCC(C)C)NC(=O)[C@H](CCC(N)=O)NC(=O)[C@H](C)NC(=O)[C@H](Cc2c[nH]c3ccccc23)NC(=O)[C@H](Cc2ccc(O)cc2)NC(=O)[C@H](C)NC1=O)[C@@H](C)O` [compound 114] as the molecule, how does the EC50 (RKO cells) read?
**A.** The EC50 was 5 to 15 µM.

**Q.** `CC(=O)N[C@@H](CC(C)C)C(=O)N[C@H](C(=O)N[C@@H](Cc1ccccc1)C(=O)N[C@]1(C)CCCCCC/C=C/CCC[C@@](C)(C(=O)N[C@@H](CO)C(=O)N[C@@H](C)C(=O)N[C@@H](C)C(N)=O)NC(=O)[C@H](CCC(C)C)NC(=O)[C@H](CCC(N)=O)NC(=O)[C@H](C)NC(=O)[C@H](Cc2c[nH]c3ccccc23)NC(=O)[C@H](Cc2ccc(O)cc2)NC(=O)[C@H](C)NC1=O)[C@@H](C)O` [compound 115] was tested. Which EC50 (RKO cells) did it give?
**A.** Its EC50 is 5 to 15 µM.

**Q.** Which EC50 (RKO cells) does the source give for `CCCC[C@H](NC(=O)[C@H](C)NC(=O)[C@H](C)NC(=O)[C@]1(C)CCCCCCCCCCC[C@@](C)(NC(=O)[C@H](Cc2ccccc2)NC(=O)[C@@H](NC(=O)[C@H](CC(C)C)NC(C)=O)[C@@H](C)O)C(=O)N[C@@H](C)C(=O)N[C@@H](Cc2ccc(O)cc2)C(=O)N[C@@H](Cc2c[nH]c3ccccc23)C(=O)N[C@@H](C)C(=O)N[C@@H](CCC(N)=O)C(=O)N[C@@H](CC(C)C)C(=O)N1)C(=O)N[C@@H](C)C(N)=O` [compound 444] here?
**A.** Its EC50 is < 5 µM.

**Q.** `CC(=O)N[C@@H](CC(C)C)C(=O)N[C@H](C(=O)N[C@@H](Cc1ccccc1)C(=O)N[C@]1(C)CCCCCCC=CCCC[C@@](C)(C(=O)N[C@@H](CO)C(=O)N[C@@H](Cc2c[nH]c3ccccc23)C(=O)N[C@@H](C)C(N)=O)NC(=O)[C@H](CC(C)C)NC(=O)[C@H](CCC(N)=O)NC(=O)[C@H](C)NC(=O)[C@H](Cc2c[nH]c3ccccc23)NC(=O)[C@H](Cc2ccc(O)cc2)NC(=O)[C@H](C)NC1=O)[C@@H](C)O` (single isomer, unassigned) [compound 120] was tested. Which EC50 (RKO cells) did it give?
**A.** The EC50 was < 5 µM.

**Q.** `CC(=O)N[C@@H](CC(C)C)C(=O)N[C@H](C(=O)N[C@@H](Cc1ccccc1)C(=O)N[C@]1(C)CCCCCCC=CCCC[C@@](C)(C(=O)N[C@@H](C)C(=O)N[C@@H](C)C(=O)N[C@@H](Cc2ccccc2)C(=O)N[C@H](C)C(N)=O)NC(=O)[C@H](CC(C)C)NC(=O)[C@H](CCC(N)=O)NC(=O)[C@H](C)NC(=O)[C@H](Cc2c[nH]c3ccccc23)NC(=O)[C@H](Cc2ccc(O)cc2)NC(=O)[C@H](CCC(=O)O)NC1=O)[C@@H](C)O` (single isomer, unassigned) [compound 219] was tested. Which EC50 (RKO cells) did it give?
**A.** Its EC50 is 5 to 15 µM.

**Q.** With `CC(=O)N[C@@H](CC(C)C)C(=O)N[C@H](C(=O)N[C@@H](Cc1ccccc1)C(=O)N[C@]1(C)CCCCCCCCCCC[C@@](C)(C(=O)N[C@@H](C)C(=O)N[C@@H](C)C(=O)N[C@@H](C)C(=O)N[C@@H](C)C(=O)N[C@@H](C)C(=O)N[C@H](C)C(N)=O)NC(=O)[C@H](CC(C)C)NC(=O)[C@H](CCC(N)=O)NC(=O)[C@H](C)NC(=O)[C@H](Cc2c[nH]c3ccccc23)NC(=O)[C@H](Cc2ccc(O)cc2)NC(=O)[C@H](CCC(=O)O)NC1=O)[C@@H](C)O` [compound 445] as the molecule, how does the EC50 (RKO cells) read?
**A.** Its EC50 is 5 to 15 µM.

**Q.** Which results are given for `CCCC[C@H](NC(=O)[C@H](C)NC(=O)[C@H](Cc1cc(=O)oc2cc(OC)c(OC)cc12)NC(=O)[C@]1(C)CCCC=CCCCCCC[C@@](C)(NC(=O)[C@H](Cc2ccccc2)NC(=O)[C@@H](NC(=O)[C@H](CC(C)C)NC(C)=O)[C@@H](C)O)C(=O)N[C@@H](C)C(=O)N[C@@H](Cc2ccc(O)cc2)C(=O)N[C@@H](Cc2c[nH]c3ccccc23)C(=O)N[C@@H](C)C(=O)N[C@@H](CCC(N)=O)C(=O)N[C@@H](CC(C)C)C(=O)N1)C(=O)N[C@@H](C)C(N)=O` (single isomer, unassigned) [compound 416]?
**A.** p21 0.3 uM (p21): 33.74; p21 1 uM (p21): 39.82; p21 3 uM (p21): 56.57; p21 10 uM (p21): 86.78; p21 30 uM (p21): 1275.28

**Q.** Which EC50 (RKO cells) does the source give for `CCCC[C@H](NC(=O)[C@H](C)NC(=O)[C@H](C)NC(=O)[C@]1(C)CCC/C=C/CCCCCC[C@@](C)(NC(=O)[C@H](Cc2ccccc2)NC(=O)[C@@H](NC(=O)[C@H](CC(C)C)NC(C)=O)[C@@H](C)O)C(=O)N[C@@H](C)C(=O)N[C@@H](Cc2ccc(O)cc2)C(=O)N[C@@](C)(Cc2c[nH]c3ccccc23)C(=O)N[C@@H](C)C(=O)N[C@@H](CCC(N)=O)C(=O)N[C@@H](CC(C)C)C(=O)N1)C(=O)N[C@@H](C)C(N)=O` [compound 388] here?
**A.** Its EC50 is 15 to 30 µM.

**Q.** `CC(=O)N[C@@H](CC(C)C)C(=O)N[C@H](C(=O)N[C@@H](Cc1ccccc1)C(=O)N[C@]1(C)CCCCCCC=CCCC[C@@](C)(C(=O)N[C@@H](CO)C(=O)N[C@@H](C)C(=O)N[C@@H](Cc2ccccc2)C(N)=O)NC(=O)[C@H](CC(C)C)NC(=O)[C@H](CCC(N)=O)NC(=O)[C@H](C)NC(=O)[C@H](Cc2c[nH]c3ccccc23)NC(=O)[C@H](Cc2ccc(O)cc2)NC(=O)[C@H](C)NC1=O)[C@@H](C)O` [compound 7] was tested. Which EC50 (RKO cells) did it give?
**A.** The EC50 was < 5 µM.

**Q.** Which EC50 (RKO cells) does the source give for `CC(=O)N[C@@H](CC(C)C)C(=O)N[C@H](C(=O)N[C@@H](Cc1ccccc1)C(=O)N[C@]1(C)CCCCCCC=CCCC[C@@](C)(C(=O)N[C@@H](CO)C(=O)N[C@@H](C)C(=O)N[C@@H](C)C(N)=O)NC(=O)[C@H](C2CCCC2)NC(=O)[C@H](CCC(N)=O)NC(=O)[C@H](C)NC(=O)[C@H](Cc2c[nH]c3ccccc23)NC(=O)[C@H](Cc2ccc(O)cc2)NC(=O)[C@H](CCC(=O)O)NC1=O)[C@@H](C)O` (single isomer, unassigned) [compound 150] here?
**A.** The EC50 was 15 to 30 µM.

**Q.** What does the source list for `CC(=O)N[C@@H](CC(C)C)C(=O)N[C@H](C(=O)N[C@@H](Cc1ccccc1)C(=O)N[C@]1(C)CCCCCCC=CCCC[C@@](C)(C(=O)N[C@@H](C)C(=O)N[C@@H](C)C(=O)N[C@@H](C)C(=O)N[C@H](C)C(N)=O)NC(=O)[C@H](CC(C)C)NC(=O)[C@H](CCC(N)=O)NC(=O)[C@H](C)NC(=O)[C@H](Cc2c[nH]c3ccccc23)NC(=O)[C@H](Cc2ccc(O)cc2)NC(=O)[C@H](C)NC1=O)[C@@H](C)O` (single isomer, unassigned) [compound 230]?
**A.** p21 0.3 uM (p21): 245.5; p21 1 uM (p21): 392; p21 3 uM (p21): 882; p21 10 uM (p21): 1549; p21 30 uM (p21): 2086

**Q.** For `CC(=O)N[C@@H](CC(C)C)C(=O)N[C@H](C(=O)N[C@@H](Cc1ccccc1)C(=O)N[C@]1(C)CCCCCCC=CCCC[C@@](C)(C(=O)N[C@@H](CO)C(=O)N[C@@H](C)C(=O)N[C@@H](C)C(N)=O)NC(=O)[C@H](CC2CCC2)NC(=O)[C@H](CCC(N)=O)NC(=O)[C@H](C)NC(=O)[C@H](Cc2ccc3ccccc3c2)NC(=O)[C@H](Cc2ccc(O)cc2)NC(=O)[C@H](CCC(=O)O)NC1=O)[C@@H](C)O` [compound 254], which “p21 0.3 uM” value (p21) is on record?
**A.** The value was 118.

**Q.** And the “p21 1 uM” value (p21)?
**A.** Its value is 896.

**Q.** And the “p21 3 uM” value (p21)?
**A.** The value was 1774.

**Q.** What about the “p21 10 uM” value (p21) of the same molecule?
**A.** Its value is 3042.

**Q.** What about the “p21 30 uM” value (p21) of the same molecule?
**A.** Its value is 3035.
